Earlier results in PMC6680850, “Anion Inhibition Profile of the β-Carbonic Anhydrase from the Opportunist Pathogenic Fungus Malassezia restricta Involved in Dandruff and Seborrheic Dermatitis” (Metabolites, 2019).

Target: hCA II
Conditions: CO2 hydration reaction, 20 °C, pH 8.3, stopped flow; ref [31]; cited from earlier work

Compound	Ki [µM]
CCN(CC)C(=S)S [Et2NCS2^−, diethyldithiocarbamate]	3.1
NS(=O)(=O)O [NH2SO3H, sulfamic acid]	390
